Values joined by “and” are separate entries in the source; they are usually repeats but may differ in a detail not shown here. Equal entries are not always repeated.
System: SEAP expression in HEK293T cells
Test: Background signal of SEAP reporter and single-construct controls
Type: cell-based
Settings: CDH3 columns
Experimental: Supplementary Figure 7: Dose-dependence and reversibility characterization of CDHs in CDH- […]
a) Background signal of SEAP reporter in the absence of the CDH-TF system. HEK239T cells were transfected with SEAP reporter S132 and treated with 1 µM Drugs 12 hours post transfection.
Quantification of SEAP was performed 24 hours after drug treatment. b) Drug specificity of CDH-TFs. […]
Background signal of SEAP reporter in the absence of the CDH-GEMS system. HEK293T cells were transfected with pLS566 SEAP reporter plasmids and treated with drugs. Quantification of SEAP was performed 24 hours post drug treatment. f) SEAP activity upon transfecting single or paired […]
CDHs (1-red, 2-green and 3-blue) activate SEAP expression. g) Drug specificity test on CDH-GEMS.
Quantification of SEAP activity of three CDHs with DMSO (dark color), specific (light color) and unspecific drug treatment (gray). […]
(culture medium) in panels of b, c, f and g were collected every 12 hours. Values were normalized to zero based on the SEAP expression at time 0. a, b, e, f, g) The bar charts show the mean ± s.d. of n = 3 biologically independent samples overlaid with a scatter dot plot of the original data points.

For mdm2, the “Reporter signal, single constructs vs pair” value (Suppl Fig 7f) was 17.4605 and 15.5138 and 13.0555 and the “Reporter signal, single constructs vs pair” value (Suppl Fig 7g (so in the source)) was 17.4605 and 15.5138 and 13.0555.

Reference: publication PMC8486872, “A rational blueprint for the design of chemically-controlled protein switches” (Nature Communications, 2021)
